Values quoted from earlier work as cited in patent publication US20060292186A1, “Self-nanoemulsifying oily formulation for the administration of poorly water-soluble drugs” (Novagali Pharma SA, priority 2003, published 2006).

Details: cited from earlier work

D-α-tocopheryl polyethylene glycol succinate 1000 [TPGS]
rodent oral DL50 compared with Cremophor EL: lower

oxyethylated tert-octylphenol formaldehyde polymer [tyloxapol]
rodent oral DL50 compared with Cremophor EL: lower
